## Binding of CDR-mutated scFvs to a peptide of the spike HR2 region

The target is the same throughout: PDVDLGDISGINAS, from the HR2 region of SARS-CoV-2 spike.

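The library (AAYL50) carries one to three amino acid substitutions per variant, with no insertions or deletions. The assay is AlphaSeq: two haploid yeast populations carry antibody and antigen on their surface. The frequency of each diploid, read from paired DNA barcodes, reflects how well the two displayed proteins bind. The ratio of observed to expected reads was calibrated, replicate by replicate, on BCL2-family standards whose Kd was known from biolayer interferometry. The assay was run in three technical replicates.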

The variants keep the heavy chain, the linker and the frameworks of Ab-14 (scFv order VH, a 15-residue (Gly4Ser)3 linker, VL).
VH: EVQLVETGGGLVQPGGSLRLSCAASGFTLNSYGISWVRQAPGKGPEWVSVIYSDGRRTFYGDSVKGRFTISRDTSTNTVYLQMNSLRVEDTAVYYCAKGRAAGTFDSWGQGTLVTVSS
VL: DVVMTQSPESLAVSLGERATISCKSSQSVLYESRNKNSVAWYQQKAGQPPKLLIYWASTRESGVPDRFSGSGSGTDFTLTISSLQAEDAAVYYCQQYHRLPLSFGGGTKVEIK

Substitutions are numbered in sequence along the VL above, starting at 1 (not Kabat).
All variants listed here change R60 of the VL, counted from its first residue.
Values are apparent Kd, the geometric mean of the replicates that gave a signal; lower means stronger binding.
An entry "no signal" has no value in the source: the pair was not observed among the diploids in any replicate. This suggests poor binding but is not conclusive.

The variant W56Q/R60C/Y97Q showed 510 nM (3 of 3 replicates; controls 8 of 9). With S28H/S58C/R60I the result was 79 µM (2 of 3 replicates; controls 3 of 9). With S38V/R60M the result was 540 nM (1 of 3 replicates; controls 0 of 9). For A40Y/W56L/R60P, the assay gave 7.3 µM (2 of 3 replicates; controls 1 of 9). The variant S26L/R34K/R60D showed no signal (0 of 3 replicates; controls 0 of 9). The variant L30D/K36Y/R60G gave 88 µM (1 of 3 replicates; controls 2 of 9). For W56R/R60K/P101R, the assay gave 91 nM (3 of 3 replicates; controls 0 of 9). The variant K24E/S28F/R60K gave 85 µM (1 of 3 replicates; controls 5 of 9). With R60G the result was 30 nM (3 of 3 replicates; controls 0 of 9).

With R60K/Q96K/Y97P the result was 980 nM (1 of 3 replicates; controls 0 of 9). The variant V39W/R60C/L102T gave no signal (0 of 3 replicates; controls 0 of 9). The variant Y31Q/R60N/Q95V gave no signal (0 of 3 replicates; controls 0 of 9). With S38K/V39E/R60I the result was no signal (0 of 3 replicates; controls 0 of 9). The variant R34E/S58F/R60D gave 5.9 µM (2 of 3 replicates; controls 6 of 9). For E32D/A57D/R60Q, the assay gave 4.3 µM (1 of 3 replicates; controls 2 of 9). The variant N37P/S58M/R60Q gave no signal (0 of 3 replicates; controls 0 of 9). The variant T59Y/R60S/L100A gave no signal (0 of 3 replicates; controls 0 of 9). For Y31N/W56S/R60C, the assay gave 30 nM (3 of 3 replicates; controls 0 of 9).

For S38V/R60M/R99L, the assay gave 3.0 µM (2 of 3 replicates; controls 0 of 9). With R60L/Y97C/L102P the result was no signal (0 of 3 replicates; controls 1 of 9). The variant S26V/Y31S/R60Y showed 4.1 µM (1 of 3 replicates; controls 1 of 9). With Q27W/R60Y/Q95L the result was no signal (0 of 3 replicates; controls 0 of 9). With S26Y/R60T/R99D the result was 60 nM (1 of 3 replicates; controls 0 of 9). With Q27L/R60Y the result was 2.3 µM (2 of 3 replicates; controls 2 of 9). For V29W/R60F/Y97M, the assay gave no signal (0 of 3 replicates; controls 3 of 9). With R34F/R60C/R99H the result was 100 nM (3 of 3 replicates; controls 0 of 9). With R60P/E61M/H98D the result was 43 nM (3 of 3 replicates; controls 0 of 9).

For S25P/S38H/R60Y, the assay gave 260 µM (2 of 3 replicates; controls 6 of 9). With S28F/N35G/R60W the result was 35 µM (2 of 3 replicates; controls 0 of 9). For R60Y, the assay gave 50 µM (2 of 3 replicates; controls 4 of 9). The variant W56P/R60S gave 53 µM (1 of 3 replicates; controls 2 of 9). For V39D/R60E, the assay gave 780 µM (1 of 3 replicates; controls 4 of 9). The variant S38W/R60F/Q95Y gave no signal (0 of 3 replicates; controls 2 of 9). The variant Q27D/R60T/E61V showed 25 nM (3 of 3 replicates; controls 2 of 9). For S33R/N37G/R60P, the assay gave no signal (0 of 3 replicates; controls 1 of 9). For R60G/S62Y/Y97R, the assay gave 1.6 µM (1 of 3 replicates; controls 0 of 9).

For S26A/R60M, the assay gave 11 µM (1 of 3 replicates; controls 0 of 9). The variant V29F/A57T/R60P gave 3.2 µM (3 of 3 replicates; controls 3 of 9). With S38C/R60I/E61H the result was 14 µM (3 of 3 replicates; controls 2 of 9).

Excerpt, the final 3 entries:

changes,Kd (apparent),detected,empty controls
S26A/R60M,11 µM,1/3,0/9
V29F/A57T/R60P,3.2 µM,3/3,3/9
S38C/R60I/E61H,14 µM,3/3,2/9

In this assay the parent's reference entry averaged 4.4 nM; its copy inside this library read 48 nM.
As a blank, each scFv also met three strains without target: over library AAYL50, 18% of these pairings were detected, typically at 15 µM and seldom below 970 nM. For each scFv, signals with the empty controls are counted beside the result.

Source: Engelhart et al. 2022 (doi:10.1038/s41597-022-01779-4), MIT Lincoln Laboratory and A-Alpha Bio; data file from the FLAb repository.